Data taken from patent publication US20240366807A1, “RADIOFLUORINATED AGENTS FOR PET IMAGING SELECTIVELY TARGETING FIBROBLAST ACTIVATION PROTEIN” (Trustees of tufts college, priority 2021, published 2024).

Amino acid sequences for entries named in this document (tags omitted).
UniProt Q12884, whole entry: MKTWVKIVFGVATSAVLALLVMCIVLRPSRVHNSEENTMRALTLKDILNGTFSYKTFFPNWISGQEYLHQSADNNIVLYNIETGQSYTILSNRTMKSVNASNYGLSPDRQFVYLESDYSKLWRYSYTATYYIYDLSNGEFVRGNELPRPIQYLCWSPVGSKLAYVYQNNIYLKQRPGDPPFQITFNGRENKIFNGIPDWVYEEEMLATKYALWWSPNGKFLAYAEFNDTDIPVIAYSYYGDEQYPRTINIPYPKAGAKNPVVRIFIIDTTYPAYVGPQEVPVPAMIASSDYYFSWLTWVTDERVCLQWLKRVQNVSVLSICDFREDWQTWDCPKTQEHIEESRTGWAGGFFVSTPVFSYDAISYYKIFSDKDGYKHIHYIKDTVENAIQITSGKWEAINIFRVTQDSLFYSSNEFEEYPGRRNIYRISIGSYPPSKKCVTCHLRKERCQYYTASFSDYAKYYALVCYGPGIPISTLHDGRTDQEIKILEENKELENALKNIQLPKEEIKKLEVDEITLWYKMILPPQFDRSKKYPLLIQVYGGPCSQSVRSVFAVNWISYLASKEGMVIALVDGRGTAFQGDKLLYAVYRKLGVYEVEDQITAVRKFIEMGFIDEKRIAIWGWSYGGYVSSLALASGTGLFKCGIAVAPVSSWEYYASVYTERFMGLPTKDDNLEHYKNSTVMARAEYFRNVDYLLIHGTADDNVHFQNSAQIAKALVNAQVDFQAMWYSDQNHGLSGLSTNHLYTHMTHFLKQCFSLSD

Biological target: recombinant human FAP (Homo sapiens (Human), UniProt Q12884)
Assay: In vitro enzyme IC50 assay, FAP
Type: biochemical
Conditions: read-out: FAP Inhibition (IC50); Example 3, compounds of Formula XI; pH not stated

IC50 [nM] | Structure (SMILES)
0.4 | CC1=CC(C)=[N+]2C1=C(CCC(=O)NNc1ccc(C(=O)N[C@H](C)C(=O)N3CCC[C@H]3B(O)O)cn1)c1c(C)cc(C)n1[B-]2(F)F
13.9 | CC1=CC(C)=[N+]2C1=Cc1ccc(CCC(=O)NNc3ccc(C(=O)N[C@H](C)C(=O)N4CCC[C@H]4B(O)O)cn3)n1[B-]2(F)F
